Data from US5459131A, “Renin inhibitors” (American Cyanamid Company, priority 1991, dated 1995).

Protein sequences, listed by entry. Tags and fused reporters are not part of them. Residues count along the entry.
UniProt P00797, 67-406 limits assumed: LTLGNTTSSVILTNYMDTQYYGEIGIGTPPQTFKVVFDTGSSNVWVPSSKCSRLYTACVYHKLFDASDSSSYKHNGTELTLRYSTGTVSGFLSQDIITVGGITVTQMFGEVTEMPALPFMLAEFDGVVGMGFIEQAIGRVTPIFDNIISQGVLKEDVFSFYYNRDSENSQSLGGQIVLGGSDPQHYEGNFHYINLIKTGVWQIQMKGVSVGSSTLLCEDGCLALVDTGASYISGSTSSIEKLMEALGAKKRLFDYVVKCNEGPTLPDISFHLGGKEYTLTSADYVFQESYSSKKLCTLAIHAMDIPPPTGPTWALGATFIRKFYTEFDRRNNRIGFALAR

Biological target: human kidney renin (Homo sapiens, UniProt P00797)
Assay: Radioimmunoassay screen for renin inhibitors (angiotensin I generation, then RIA quantitation)
Conditions: read-out: Renin Inhibition IC50 Molar Concentration; purified human plasma angiotensinogen substrate, maleate buffer pH 6.0, 1 hour at 37° C.
Description: Radioimmunoassay Screen For Renin Inhibitors
The in vitro method for the screening of anti-renin compounds involves, first, angiotensin I generation, and second, the quantitation of the angiotensin I produced by radioimmunoassay.
The incubation medium consisted of 20 μl of purified human plasma angiotensinogen; (1) 10 μl of human kidney renin; (2) 5 μl of phenylmethylsulfonyl fluoride; 10 μl of disodium EDTA (10 mM); 10 μl of antirenin compound (5×10^-3 M, 5×10^-4 M, 5×10^-5 M) in dimethylformamide, or ethanol and a suitable amount of maleate buffer (77 mM, pH 6.0) to make a final volume of 500 μl . The reaction mixture is incubated for one hour at 37° C. and the enzymatic reaction is stopped by placing the tube in ice-cold water. The angiotensin I generated during the incubation is measured by a radioimmunoassay plasma renin activity kit (Clinical Assays, Inc.).
Radioimmunoassay Procedure
The incubation medium consisted of either 100 μl aliquots of the above reaction mixture or a standard amount of angiotensin I; 1000 μl of phosphate buffer (100 mM, pH 7.6) and 100 μl of (^125 I) angiotensin in a gamma-coat tube. After three hours of incubation at room temperature, the tubes are decanted, and the radioactivity of each tube is determined in a gamma counter. Duplicate determinations are performed for each incubation. The results are expressed in ng of angiotensin I generated per ml of generation medium per hour of incubation (ng/AI/ml/hr).
The results of this test on representative compounds of this invention appear in Table I, expressed as an IC50.
(1) The human plasma angiotensinogen derived from the blood of a person receiving oral contraceptive pills is purified by chromatography on a pepstatinaminohexyl-agarose column.
(2) Human renin is prepared from human kidney.

| IC50 [nM] | Structure (SMILES) |
| --- | --- |
| 51 | CC(C)C[C@H](NC(=O)[C@H](CC(=O)c1ccccc1)Cc1ccccc1)C(=O)N[C@@H](CC1CCCCC1)[C@@H](O)[C@@H]1CCCO1 |
| 190 | CC(C)C[C@H](NC(=O)[C@H](CC(=O)c1ccco1)Cc1ccccc1)C(=O)N[C@@H](CC1CCCCC1)[C@@H](O)[C@@H]1CCCO1 |
| 3.3 | CC(C)C[C@H](NC(=O)[C@@H](CC(=O)c1cccc(C(F)(F)F)c1)Cc1ccccc1)C(=O)N[C@@H](CC1CCCCC1)[C@@H](O)[C@@H]1CCCO1 |
| 0.01 | CC(C)C[C@H](NC(=O)[C@@H](CC(=O)c1ccco1)Cc1ccccc1)C(=O)N[C@@H](CC1CCCCC1)[C@@H](O)[C@@H]1CCCO1 |
| 0.07 | O=C(C[C@@H](Cc1ccccc1)C(=O)N[C@@H](Cc1c[nH]cn1)C(=O)N[C@@H](CC1CCCCC1)[C@@H](O)[C@@H]1CCCO1)c1ccccc1 |
| 490 | CC(C)CC(NC(=O)C(CC(=O)c1ccccc1)Cc1ccccc1)C(=O)NC(CC1CCCCC1)C(O)c1cccs1 (stereo not shown) |
| 0.86 | O=C(C[C@@H](Cc1ccccc1)C(=O)N[C@@H](Cc1cnc[nH]1)C(=O)N[C@@H](CC1CCCCC1)[C@@H](O)[C@@H]1CCCO1)c1ccco1 |
| 4000 | CC(C)C[C@H](NC(=O)[C@H](CC(=O)c1ccccc1)Cc1ccccc1)C(=O)N[C@@H](CC1CCCCC1)[C@@H](O)c1ccco1 |
| 29 | O=C(C[C@H](Cc1ccccc1)C(=O)N[C@@H](Cc1cnc[nH]1)C(=O)N[C@@H](CC1CCCCC1)[C@@H](O)[C@@H]1CCCO1)c1ccco1 |
| 2.7 | CC(C)C[C@H](NC(=O)[C@@H](CC(=O)c1ccccc1)Cc1ccccc1)C(=O)N[C@@H](CC1CCCCC1)[C@@H](O)[C@@H]1CCCO1 |
| 5.1 | CC(C)C[C@H](NC(=O)[C@@H](CC(=O)c1ccco1)CC1CCCCC1)C(=O)N[C@@H](CC1CCCCC1)[C@@H](O)[C@@H]1CCCO1 |
| 24 | CC(C)C[C@H](NC(=O)[C@@H](CC(=O)c1ccccc1)Cc1ccccc1)C(=O)N[C@@H](CC1CCCCC1)[C@@H](O)c1ccco1 |
| 160 | CC(C)C[C@H](NC(=O)[C@H](CC(=O)c1ccco1)CC1CCCCC1)C(=O)N[C@@H](CC1CCCCC1)[C@@H](O)[C@@H]1CCCO1 |
